# Source: patent US20090136470A1, “REGULATORY T CELLS AND METHODS OF MAKING AND USING SAME” (priority 2007, published 2009)
# System: naïve CD4^+T cells from B7.1/2^−/− IL-2^+/+ or B7.1/2^−/− IL-2^−/− mice
# Experiment: RA-mediated effects on T cell differentiation without IL-2 (anti-IL-2 or IL-2−/− T cells) or with exogenous IL-2
# Assay type: cell-based, mouse
# Source text: C57BL/6 CD45.1 (Ly5.1) and CD45.2 (Ly5.2), OT-I TCR-transgenic (C57BL/6 background), RAG1^−/− (C57BL/6 background), B7.1/2 double-knockout (C57BL/6 background) and IL-2^−/− (C57BL/6 background) mice were purchased from The Jackson Laboratories (USA). To obtain B7.1/2-IL-2 tripleknockout mice, B7.1/2^−/− and IL-2^−/− mice were crossed in our animal facility. OT-II CD90.1 TCR transgenic mice (C57BL/6 background). Mice were maintained under specific pathogen-free conditions and sentinel mice from the RAG1^−/−mice colony were tested to be negative for Helicobacter spp. and Citrobacter rodentium. Mice were used at 7-12 weeks of age. Animal care and experimentation were consistent with the NIH guidelines and were approved by the Institutional Animal Care and Use Committee at the La Jolla Institute for Allergy and Immunology.
# The culture medium used for dendritic cell-T cell cultures was Iscove's modified Dulbecco medium (IMDM) (Gibco, USA) supplemented with 10% heat-inactivated FCS, 2 mM L-glutamine, 100 U/ml penicillin, 100 μg/ml streptomycin, and 5 mM β-mercaptoethanol (all Sigma, USA). […] For the study shown in FIG. 4A, after sorting of naive CD4^+ cells (CD25^−CD44^lowCD62L^+), cells were washed twice in PBS+0.1% BSA, counted and labeled with 2 μM of CFSE (Carboxyfluorescein diacetate, succinimidyl ester) (Molecular Probes, USA) at a concentration of 5−10×10^6 cells per ml in PBS-0.1% BSA. […]
substance,measurement,setting,value
IL-2: exogenous cytokine IL-2 (200 u/ml),CD103 phenotype of the Foxp3^+Tregs generated,TGF-β-dependent Foxp3 differentiation,CD103^−
same,IL-17 cytokine secretion (ELISA),culture supernatants,did not
